Positions count from the first letter of the chain named. Values belong to the binder of their own block, whether it stands above or below them.
Tests used:
[1] = biological target: T1, BCL-xL/ABT-737 complex: biotinylated BCL-xL (residues 2-215) in the presence of 1 µM ABT-737 (human, UniProt Q07817 2-215, biotin on the N-terminal AviTag; small molecule ABT-737 bound non-covalently); assay: BLI (Octet), biotinylated BCL-xL on streptavidin sensor, Fab as analyte, 1 µM ABT-737, global 1:1 fit
T1 construct: Same protein as m1; not shown: N-terminal tags (pMCSG7 vector tag used for Ni-NTA, AviTag, TEV cut site)

Sequences of proteins named here, by UniProt entry; tags and fusion partners are left off. Residues count along the entry.
UniProt Q07817, 2-215: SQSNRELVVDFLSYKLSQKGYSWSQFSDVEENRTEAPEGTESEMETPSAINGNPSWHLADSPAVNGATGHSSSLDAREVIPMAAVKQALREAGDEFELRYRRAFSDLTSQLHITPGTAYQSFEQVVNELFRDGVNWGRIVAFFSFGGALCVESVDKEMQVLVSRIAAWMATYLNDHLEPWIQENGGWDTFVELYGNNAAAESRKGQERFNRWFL

[2] = biological target: T1, BCL-xL/ABT-737 complex: biotinylated …; assay: BLI (Octet)

Kd [1]: 9.5 nM | koff [1]: 0.00209 s⁻¹ | kon [1]: 220000 M⁻¹ s⁻¹
B1: Fab AZ3 (Fab)
heavy: EISEVQLVESGGGLVQPGGSLRLSCAASGFNIYYSYMHWVRQAPGKGLEWVASISPYSSYTSYADSVKGRFTISADTSKNTAYLQMNSLRAEDTAVYYCARYGYSYYYYGALDYWGQGTLVTVSSASTKGPSVFPLAPSSKSTSGGTAALGCLVKDYFPEPVTVSWNSGALTSGVHTFPAVLQSSGLYSLSSVVTVPSSSLGTQTYICNVNHKPSNTKVDKKVEPKSCDKTHTGGSHHHHHH
light: SDIQMTQSPSSLSASVGDRVTITCRASQSVSSAVAWYQQKPGKAPKLLIYSASSLYSGVPSRFSGSRSGTDFTLTISSLQPEDFATYYCQQGWSGPWLITFGQGTKVEIKRTVAAPSVFIFPPSDSQLKSGTASVVCLLNNFYPREAKVQWKVDNALQSGNSQESVTEQDSKDSTYSLSSTLTLSKADYEKHKVYACEVTHQGLSSPVTKSFNRGECGGSDYKDDDDK
notes: Purified Fab; graft limits inferred

Kd [1]: 3 nM | koff [1]: 0.0004 s⁻¹ | kon [1]: 130000 M⁻¹ s⁻¹
B2: Fab AZ1 (Fab)
heavy: EISEVQLVESGGGLVQPGGSLRLSCAASGFNLSYSSMHWVRQAPGKGLEWVASISPYSSYTSYADSVKGRFTISADTSKNTAYLQMNSLRAEDTAVYYCARGWVGMDYWGQGTLVTVSSASTKGPSVFPLAPSSKSTSGGTAALGCLVKDYFPEPVTVSWNSGALTSGVHTFPAVLQSSGLYSLSSVVTVPSSSLGTQTYICNVNHKPSNTKVDKKVEPKSCDKTHTGGSHHHHHH
light: SDIQMTQSPSSLSASVGDRVTITCRASQSVSSAVAWYQQKPGKAPKLLIYSASSLYSGVPSRFSGSRSGTDFTLTISSLQPEDFATYYCQQYYWGFPSLFTFGQGTKVEIKRTVAAPSVFIFPPSDSQLKSGTASVVCLLNNFYPREAKVQWKVDNALQSGNSQESVTEQDSKDSTYSLSSTLTLSKADYEKHKVYACEVTHQGLSSPVTKSFNRGECGGSDYKDDDDK
notes: Purified Fab from E. coli; The scaffold tags are kept

fold selectivity for the ABT-737-bound form of BCL-xL over the apo form [2]: > 2000 fold | Kd [1]: 2.4 nM | koff [1]: 0.00026 s⁻¹ | kon [1]: 110000 M⁻¹ s⁻¹
B3: Fab AZ2 (Fab)
heavy: EISEVQLVESGGGLVQPGGSLRLSCAASGFNIYSYYMHWVRQAPGKGLEWVAYISPYYSYTSYADSVKGRFTISADTSKNTAYLQMNSLRAEDTAVYYCARGYPWYGMDYWGQGTLVTVSSASTKGPSVFPLAPSSKSTSGGTAALGCLVKDYFPEPVTVSWNSGALTSGVHTFPAVLQSSGLYSLSSVVTVPSSSLGTQTYICNVNHKPSNTKVDKKVEPKSCDKTHTGGSHHHHHH
light: B2 light with Y92V, Y93S, G95A, F96Y, S98Y, F100I
notes: as for B1

From patent US20200255519A1 (University of California, published 2020)
